# Molecular target: T1, Phex524 (CYP71CU1) (Sinopodophyllum hexandrum, UniProt A0A0N9HTU1)
# T1 sequence (A0A0N9HTU1 1-493): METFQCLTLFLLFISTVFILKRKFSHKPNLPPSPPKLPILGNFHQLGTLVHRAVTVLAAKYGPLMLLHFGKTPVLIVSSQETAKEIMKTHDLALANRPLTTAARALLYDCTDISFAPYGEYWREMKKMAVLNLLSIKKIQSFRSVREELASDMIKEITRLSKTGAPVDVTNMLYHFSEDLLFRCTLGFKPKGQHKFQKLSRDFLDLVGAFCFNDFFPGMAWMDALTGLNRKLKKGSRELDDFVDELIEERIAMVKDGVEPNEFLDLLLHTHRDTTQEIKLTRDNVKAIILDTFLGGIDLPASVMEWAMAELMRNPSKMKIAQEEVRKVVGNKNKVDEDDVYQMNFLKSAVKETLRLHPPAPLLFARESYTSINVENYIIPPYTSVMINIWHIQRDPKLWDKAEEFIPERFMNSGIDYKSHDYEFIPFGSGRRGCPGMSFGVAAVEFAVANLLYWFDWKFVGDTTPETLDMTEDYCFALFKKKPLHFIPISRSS
# Experiment: yeast microsome turnover, LC-MS
# Assay type: biochemical
# Details: NADPH; product (−)-5′-desmethyl-yatein
structure (smiles),measurement,value
COc1ccc(C[C@H]2C(=O)OC[C@@H]2Cc2ccc3c(c2)OCO3)cc1OC [(−)-5′-desmethoxy-yatein],"yeast microsome turnover, LC-MS",incubation of (−)-5′-desmethoxy-yatein with CYP71CU1 and the reduced form of nicotinamide adenine dinucleotide phosphate

# Reference: paper PMC6861171 (Science (New York, N.Y.), 2015)
